Values quoted from earlier work, collected in patent US20150374767A1, “Treatment of Cancer” (priority 2013, published 2015).
Structures can show the parent of a compound that is named as a salt.

Protein sequences, listed by entry. Tags and fused reporters are not part of them. Residues count along the entry.
UniProt P17948, 27-1338: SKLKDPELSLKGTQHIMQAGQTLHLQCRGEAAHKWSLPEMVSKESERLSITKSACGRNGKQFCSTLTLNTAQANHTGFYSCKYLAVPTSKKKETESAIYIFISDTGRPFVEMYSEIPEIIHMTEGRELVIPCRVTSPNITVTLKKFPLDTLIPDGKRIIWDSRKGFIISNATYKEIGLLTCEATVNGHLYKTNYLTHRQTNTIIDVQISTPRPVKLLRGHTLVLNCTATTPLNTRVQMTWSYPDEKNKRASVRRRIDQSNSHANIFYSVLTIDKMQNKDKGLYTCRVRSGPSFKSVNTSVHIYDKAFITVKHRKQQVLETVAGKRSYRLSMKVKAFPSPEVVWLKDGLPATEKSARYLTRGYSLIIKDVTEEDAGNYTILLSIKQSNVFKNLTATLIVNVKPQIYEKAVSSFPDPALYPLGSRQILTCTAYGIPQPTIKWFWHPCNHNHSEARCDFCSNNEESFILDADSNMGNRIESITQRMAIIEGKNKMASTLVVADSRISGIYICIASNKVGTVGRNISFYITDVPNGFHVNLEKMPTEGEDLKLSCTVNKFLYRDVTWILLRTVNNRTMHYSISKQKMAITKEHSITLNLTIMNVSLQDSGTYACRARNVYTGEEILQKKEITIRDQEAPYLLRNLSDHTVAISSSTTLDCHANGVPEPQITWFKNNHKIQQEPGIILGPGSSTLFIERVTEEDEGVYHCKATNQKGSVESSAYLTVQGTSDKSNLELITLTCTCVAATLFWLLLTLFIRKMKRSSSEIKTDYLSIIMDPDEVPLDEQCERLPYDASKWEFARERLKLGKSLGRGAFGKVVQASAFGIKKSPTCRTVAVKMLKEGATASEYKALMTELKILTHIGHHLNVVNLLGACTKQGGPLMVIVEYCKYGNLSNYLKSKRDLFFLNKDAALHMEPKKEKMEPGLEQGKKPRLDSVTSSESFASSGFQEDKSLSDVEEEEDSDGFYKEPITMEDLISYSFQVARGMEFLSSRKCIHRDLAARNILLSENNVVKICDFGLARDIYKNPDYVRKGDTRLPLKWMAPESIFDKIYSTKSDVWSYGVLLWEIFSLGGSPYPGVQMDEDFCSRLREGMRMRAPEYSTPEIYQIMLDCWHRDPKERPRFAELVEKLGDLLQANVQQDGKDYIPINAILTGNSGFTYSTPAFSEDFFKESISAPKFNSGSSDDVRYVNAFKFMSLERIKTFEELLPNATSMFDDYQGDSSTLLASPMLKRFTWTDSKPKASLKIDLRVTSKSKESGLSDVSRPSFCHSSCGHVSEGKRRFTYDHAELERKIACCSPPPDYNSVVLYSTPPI

Target: VEGFR1 (Homo sapiens, UniProt P17948)
Settings: cited from earlier work

COc1cc2ncnc(Nc3ccc(Cl)cc3F)c2cc1OC [ZM 306416, 4-[(4′-Chloro-2′-fluoro)phenylamino]-6,7-dimethoxyquinazoline hydrochloride]
IC50: 33 µM
